What was measured:
h5-HT2C receptor = h5-HT2C receptor (Homo sapiens, UniProt P28335); details: read-out: Inhibition of radioligand binding Ki ± sem, h5-HT2C [125I]DOI
h5-HT2A receptor [1] = target: T1, h5-HT2A receptor (Homo sapiens, UniProt P28223); assay: cell-based
h5-HT2A receptor [2] = target: T1, h5-HT2A receptor; assay: [125I]DOI binding, HEK-h5-HT2A

By UniProt entry, the sequences of proteins in these tests, tags left out. Residues count along the entry.
UniProt P28335, 33-458: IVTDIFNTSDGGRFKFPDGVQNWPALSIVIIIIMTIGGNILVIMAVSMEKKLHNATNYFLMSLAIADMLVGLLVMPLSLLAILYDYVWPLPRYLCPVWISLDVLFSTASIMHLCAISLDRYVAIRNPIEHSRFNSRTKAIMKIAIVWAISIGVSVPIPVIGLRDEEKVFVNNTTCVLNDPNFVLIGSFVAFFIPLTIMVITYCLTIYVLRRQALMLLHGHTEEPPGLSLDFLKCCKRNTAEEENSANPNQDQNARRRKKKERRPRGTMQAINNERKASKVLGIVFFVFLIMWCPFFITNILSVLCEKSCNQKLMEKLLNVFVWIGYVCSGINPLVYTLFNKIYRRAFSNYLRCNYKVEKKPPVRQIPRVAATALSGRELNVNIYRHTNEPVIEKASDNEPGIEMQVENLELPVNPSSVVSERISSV
UniProt P28223, whole entry: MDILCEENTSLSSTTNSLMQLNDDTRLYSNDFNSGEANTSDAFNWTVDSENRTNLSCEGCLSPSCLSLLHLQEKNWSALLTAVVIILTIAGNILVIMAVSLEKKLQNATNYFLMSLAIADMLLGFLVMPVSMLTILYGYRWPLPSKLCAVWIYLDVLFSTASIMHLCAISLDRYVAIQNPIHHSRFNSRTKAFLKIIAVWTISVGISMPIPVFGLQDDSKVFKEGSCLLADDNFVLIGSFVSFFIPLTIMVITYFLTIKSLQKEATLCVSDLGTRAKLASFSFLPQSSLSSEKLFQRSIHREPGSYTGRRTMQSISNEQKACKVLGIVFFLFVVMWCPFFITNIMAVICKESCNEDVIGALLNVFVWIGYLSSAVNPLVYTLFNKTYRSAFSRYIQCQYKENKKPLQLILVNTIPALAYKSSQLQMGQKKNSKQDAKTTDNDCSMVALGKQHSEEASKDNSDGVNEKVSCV

Structure (SMILES)	Ki (h5-HT2C receptor) [µM]	IC50 (h5-HT2A receptor [1]) [µM]	Ki (h5-HT2A receptor [2]) [µM]
CNC(C)Cc1ccc2c(c1)OCO2 (stereo not drawn) [MDMA, 3,4-methylenedioxymethylamphetamine, reference compound]	1.36		
CNC(C)C(=O)c1ccc(C)cc1 (stereo not drawn) [Mephedrone, 4-methyl-N-methylcathinone]		14.8 ± 1.8	9 ± 1.5

Reference: publication PMC3692398 (Biochemical pharmacology, 2013)
